According to patent publication US4292249A, “25-Hydroxy-24-oxocholestane derivatives and preparation thereof” (priority 1979, dated 1981):

System: calcium absorption at the intestinal tube
Assay: Effect to promote calcium absorption from the intestinal tract (everted gut sac method)
Assay type: in vivo, Wistar male rats
Conditions: vitamin D-deficient rats, 250 ng/head intravenously, measured 4, 8, 24 and 48 hour later
Experimental: They were killed 4 hour, 8 hour, 24 hour and 48 hour later, and calcium absorption at the intestinal tube was measured by the everted gut sac method [see Martin, D. L. and Deluca, H. F., Amer, J. Physiol.

C=C1/C(=C\C=C2/CCC[C@]3(C)[C@@H]([C@H](C)CCCC(C)(C)O)CC[C@@H]23)C[C@@H](O)C[C@@H]1O [1α,25-dihydroxy cholecalciferol, reference compound]
time of maximum effect on intestinal calcium absorption after administration: about 8 hours
